Literature values in US20120128665A1, “PRESELECTION OF SUBJECTS FOR THERAPEUTIC TREATMENT BASED ON HYPOXIC STATUS” (SYNTA PHARMACEUTICALS CORP., priority 2010, published 2012).

By UniProt entry, the sequences of proteins in these tests, tags left out. Residues count along the entry.
UniProt P10721, 26-976, species assumed: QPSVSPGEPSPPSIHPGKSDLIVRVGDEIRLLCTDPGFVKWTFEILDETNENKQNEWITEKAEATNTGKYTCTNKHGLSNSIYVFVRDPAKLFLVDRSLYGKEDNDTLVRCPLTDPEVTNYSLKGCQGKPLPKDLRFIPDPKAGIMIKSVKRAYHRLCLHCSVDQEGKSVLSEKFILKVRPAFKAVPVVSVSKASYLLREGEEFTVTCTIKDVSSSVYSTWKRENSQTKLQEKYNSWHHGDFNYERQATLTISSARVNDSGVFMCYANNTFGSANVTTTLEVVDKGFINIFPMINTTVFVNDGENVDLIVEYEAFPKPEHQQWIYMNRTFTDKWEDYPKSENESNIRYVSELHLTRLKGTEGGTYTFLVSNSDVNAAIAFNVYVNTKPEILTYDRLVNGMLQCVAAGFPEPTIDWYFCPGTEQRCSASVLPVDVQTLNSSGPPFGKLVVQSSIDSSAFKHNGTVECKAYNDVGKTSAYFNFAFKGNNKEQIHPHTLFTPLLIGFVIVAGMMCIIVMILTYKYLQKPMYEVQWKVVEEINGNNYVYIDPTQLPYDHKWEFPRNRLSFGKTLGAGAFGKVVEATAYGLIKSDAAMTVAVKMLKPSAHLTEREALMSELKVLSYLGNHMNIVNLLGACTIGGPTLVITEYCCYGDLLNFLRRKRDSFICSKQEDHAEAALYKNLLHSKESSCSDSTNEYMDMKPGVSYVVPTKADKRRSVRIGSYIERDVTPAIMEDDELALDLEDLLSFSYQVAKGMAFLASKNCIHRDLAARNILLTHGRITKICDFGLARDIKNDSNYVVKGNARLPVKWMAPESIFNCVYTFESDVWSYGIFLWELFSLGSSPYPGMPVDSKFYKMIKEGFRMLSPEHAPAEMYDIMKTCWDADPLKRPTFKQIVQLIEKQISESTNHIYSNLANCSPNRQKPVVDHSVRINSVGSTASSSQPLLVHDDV

Target: Kit (Homo sapiens, UniProt P10721)
Settings: in vitro; cited from earlier work

For Cediranib, which “ligand-induced autophosphorylation of Kit” value is on record?
Its value is “inhibited”.
